Measurements from paper PMC10656230, “Disruption of the productive encounter complex results in dysregulation of DIAPH1 activity” (The Journal of Biological Chemistry, 2023).

Chains of the proteins cited; added tags and fusions are not shown. Residues count along the entry.
UniProt O60610, 142-380 E326G/E327A: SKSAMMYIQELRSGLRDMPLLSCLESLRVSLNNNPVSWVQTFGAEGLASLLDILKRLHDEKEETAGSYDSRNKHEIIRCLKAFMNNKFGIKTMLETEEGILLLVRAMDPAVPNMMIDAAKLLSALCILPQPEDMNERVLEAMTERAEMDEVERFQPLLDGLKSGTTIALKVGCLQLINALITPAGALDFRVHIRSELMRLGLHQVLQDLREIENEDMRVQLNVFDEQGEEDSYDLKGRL

What was measured:
[1] = target: T1, DID^E326G/E327A (Homo sapiens, UniProt O60610, E326G/E327A); test: Tryptophan fluorescence titration, DID^E326G/E327A–DAD^M1199L binding; conditions: vs WT DID
T1 construct: N-terminal his-tagged DID, residues 142 to 380 from human DIAPH1 (UniProt O60610); made in house; host or cells: Escherichia coli BL21(DE3), by the same protocol as DID

[2] = target: T1, DID^E326G/E327A; test: Stopped flow fluorescence association kinetics, DID^E326G/E327A–DAD^M1199L; format: binding; conditions: DID^E326G/E327A vs WT DID
[3] = tested on: vascular smooth muscle cells (RAGE); conditions: RAGE stimulation; cited from earlier work
Method: To further test the functional importance of the RRKR motif, we examined RAGE signal transduction ([7], [8], [9]). […] Human SMCs were transfected with plasmids-expressing yellow fluorescent protein (YFP), DIAPH1-YFP, DIAPH1^ΔDAD-YFP, and DIAPH1^E326G/E327A-YFP, and the cells were treated with 1 μM of CML-HSA (Fig. 6C). […] Note that efficient cellular migration relies on regulation of actin polymerization/depolymerization and, thus, dysregulation leads to reduced migration ([49], [50], [51]).

With “DETGVMDSLLEALQSGAAFRRKRGPRQAN [DAD, 29-residue DAD peptide corresponding to WT residues 1194 to 1222 (UniProt O60610)]” the “decrease in binding affinity on neutralizing the DID cavity (E326G/E327A)” value [1] was 5 fold and the “decrease in kon (association rate constant)” value [2] was 4 fold.
For “carboxymethyllysine human serum albumin [CML-HSA]”, the “migration of vascular smooth muscle cells” value [3] is listed as “DIAPH1-dependent increase in migration of vascular smooth muscle cells; also recorded: SMC migration is increased”.

Entries after “also recorded” stand apart in the source; their conditions may differ.
